Measured values published in patent US12622906B2, “Treatment and prognosis of pancreatic cancer” (Cambridge Enterprise Limited, priority 2019, dated 2026).
“Also recorded” adds a separate entry of the source.

Tested on: PDAC mesenchymal cells
Set-up: species or system C57BL/6J mice
Conditions: mouse, in vivo

For `C[C@@H]1CN(Cc2ccc(F)cc2)CCN1C(=O)COc1ccc(Cl)cc1NC(N)=O` [BX-471, (2R)-1-[[2-[(Aminocarbonyl)amino]-4-chlorophenoxy]acetyl]-4-[(4-fluorophenyl)methyl]-2-methylpiperazine], the primary tumour growth was “significant inhibition to the growth of pancreatic cancer cells; also recorded: Reduced primary tumour growth”.
